## Yeast mating assay B: variants of the scFv Ab-14

Data: MIT Lincoln Laboratory AlphaSeq set, Li et al. 2023, doi:10.1038/s41467-023-39022-2, as distributed in FLAb.

Binding partner: SARS-CoV-2 spike HR2 peptide, sequence PDVDLGDISGINAS.

Parent: Ab-14, a human scFv built as VH, a 15-residue (Gly4Ser)3 linker, VL. Only the CDRs of the light chain vary.
VH: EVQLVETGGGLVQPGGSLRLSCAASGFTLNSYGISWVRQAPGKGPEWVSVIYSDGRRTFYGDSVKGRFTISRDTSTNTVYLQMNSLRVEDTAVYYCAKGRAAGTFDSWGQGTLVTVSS
VL: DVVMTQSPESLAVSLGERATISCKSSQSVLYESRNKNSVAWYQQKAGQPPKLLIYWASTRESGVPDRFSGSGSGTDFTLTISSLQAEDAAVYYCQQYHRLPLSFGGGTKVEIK

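Phage display of a naive human antibody library on the peptide gave the parent. This is the validation round: designs drawn from the data on random variants, tested in the same kind of assay. Their group label is 14L_Ctrl (Ctrl: baseline library sampled from a position-specific scoring matrix, with some repeated check sequences). The assay is AlphaSeq: two haploid yeast populations carry antibody and antigen on their surface. Binding brings cells together so that they mate, and sequencing counts the barcode pairs among the diploids. A regression on co-assayed BCL2-family reference pairs converts the normalised counts of each replicate to an apparent Kd. The assay was run in six technical replicates.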

Each variant is given by its three light chain CDRs, as the data file delimits them; those of the parent are KSSQSVLYESRNKNSVA, WASTRES, QQYHRLPLS.
Affinities are written as log10 Kd with Kd in nM; a lower number is a better binder.
Averages over replicates are reported, and they cover detected replicates only.
"nd" marks a missing value. The strain was present, yet no cells mated with the target were sequenced in that replicate, which points to weak or no binding.

The variant KSSQGVLYENRNKNSVA | NARTRES | QQYHRLPLS showed 1.27, 0.45, 0.78, 0.73, 0.83, 0.82 (mean 0.81; controls 0 of 18).
The variant KSSQSDRYESRNKNQVA | RASTRES | QQMHRLPLS showed nd, nd, 1.66, nd, 2.70, nd (mean 2.18; controls 0 of 18).
The variant KSSQSVYQESRGKNSVA | WASTRES | QQYHRLPLD showed nd, nd, nd, nd, nd, nd (controls 1 of 18).
The variant KSSQSVLYESRNKNSVA | WASTRES | QQYHPLPTS showed nd, nd, nd, nd, nd, nd (controls 0 of 18).
The variant KSSQSLLYESRNKNSVA | WASTREQ | QQYHRLPLS showed 0.92, 1.15, 1.24, 0.84, 0.45, 1.56 (mean 1.03; controls 0 of 18).
The variant KKSQSVLYESRNGNSVA | WASTRES | QQYHRLPLS showed nd, nd, nd, nd, nd, nd (controls 1 of 18).
The variant KISPRVLYESRNKNSVA | WASTRES | QQLHRPPLS showed 0.35, 0.15, -0.04, 0.15, 0.01, -0.07 (mean 0.09; controls 0 of 18).
The variant KFSQSVRYESRNKNSVA | WASTNES | QQYGRLPGS showed nd, 3.85, nd, nd, nd, nd (controls 0 of 18).
The variant KSSQSMLYESYNKNSVA | WASTRES | QQYHRLPLS showed 1.34, 1.62, 1.11, 1.88, 1.02, 1.53 (mean 1.42; controls 0 of 18).
The variant KSSQSVTYESRNKNSVC | WASTRES | QQYHRLPLS showed nd, nd, nd, nd, nd, nd (controls 0 of 18).
The variant KSSQSGLYESRNANSVA | WASTRES | QQYHRLPLM showed nd, nd, nd, 1.83, nd, 1.74 (mean 1.79; controls 1 of 18).
The variant GSSQSVLFESRNKNSVA | WASTRES | QQYYRHPLS showed nd, nd, nd, nd, nd, 2.24 (controls 0 of 18).
The variant KLSQSVLYESRNKESVA | KASTREF | QQYHRLPLS showed 0.80, 0.69, 0.69, 0.64, 0.85, 1.33 (mean 0.83; controls 2 of 18).
The variant KSSQSVEYESRNKNSVA | QASTRGS | QQYHVLPLM showed 0.57, 0.53, 0.56, 0.55, 0.59, 0.64 (mean 0.57; controls 2 of 18).
The variant KCSQSVLYEARNKNSVA | WASTREQ | QQYHRLPLS showed nd, nd, nd, nd, nd, nd (controls 0 of 18).
The variant KSSQSVLYESRNKNSVA | WASTRES | QQYHRLPPS showed 2.11, 2.42, 1.53, 1.90, nd, nd (mean 1.99; controls 0 of 18).
The variant KSSQSVPYESRNKNSVA | YASQRES | QQYHRLPLS showed 1.51, 1.23, 0.92, 1.44, 1.55, 1.92 (mean 1.43; controls 1 of 18).
The variant KSSQSVLYESRNKNSVA | WASTRMS | SQYHRLPLS showed nd, nd, nd, nd, nd, nd (controls 1 of 18).
The variant KISQSVLYESMNRNAVA | WASTRES | QQYHGLPLS showed 1.82, 1.71, 1.35, 2.01, 2.61, 1.92 (mean 1.90; controls 2 of 18).
The variant KSSQSVLYESRKKNSVA | DASTRES | QQQEVLPLS showed 0.98, 0.14, 1.90, 0.49, 0.61, 0.69 (mean 0.80; controls 0 of 18).
The variant KSSQGVLYESRNKNSVA | GASTREQ | QAYHRLPLS showed 0.18, 0.52, 0.58, 0.46, 0.47, 0.50 (mean 0.45; controls 1 of 18).
The variant SVSQSLLYESRNKNSVA | DSSMRES | QQYHRLPLS showed -0.30, -0.33, -0.40, -0.57, -0.44, -0.29 (mean -0.39; controls 1 of 18).
The variant KVSQSVLPESRNKNSVA | WASTRET | QQYHRLPLS showed 1.71, 0.95, 1.46, 2.50, 2.79, 2.57 (mean 2.00; controls 2 of 18).
The variant KSSQSVLYENRNKNSVA | EASTRES | QQYHRLPLS showed 0.81, 1.51, 0.03, 0.31, 0.81, 1.25 (mean 0.79; controls 0 of 18).
The variant KSSQGVLYESKNKNSVA | WASTRIS | QQYHRLPLS showed 2.48, 1.92, 1.71, 2.35, 2.77, 1.74 (mean 2.16; controls 0 of 18).
The variant QSSQSVLYESRLKNSVA | WASTRES | QQYHRLPLS showed nd, nd, 3.53, nd, nd, 3.85 (mean 3.69; controls 2 of 18).
The variant KSSISVLYSSRNKNSVA | WASKRES | QQYHRLPLS showed nd, nd, nd, nd, nd, nd (controls 2 of 18).
The variant MSSNSVLYEARNKNSVA | GASTRES | QQPHRLPLS showed nd, nd, nd, nd, nd, nd (controls 0 of 18).
The variant KSSQSVLYESRNKNSVA | NASTRES | QQYCRLPLS showed 1.45, 1.17, 1.31, 1.94, 1.43, 0.98 (mean 1.38; controls 1 of 18).
The variant KSSQSVLYECRNKNSVA | WASTRES | QQYHRLPLS showed nd, nd, nd, nd, nd, nd (controls 1 of 18).
The variant KSSQSVLPESRNKNSVA | WASTRES | QQYHRLVLS showed nd, nd, 2.00, nd, nd, nd (controls 0 of 18).
The variant KSSQSVLEESRNKNSVA | AASTRES | QQYHRLPLS showed 0.71, 0.43, 0.56, 0.69, 0.29, 0.14 (mean 0.47; controls 1 of 18).
The variant KSSQSVSYESTNKNSVA | EASTRES | QQYHRLPLS showed nd, nd, nd, nd, nd, nd (controls 0 of 18).
The variant KSVQSVLYESRNKNSVA | WASTRSS | QQYHRLPLS showed nd, nd, nd, nd, nd, nd (controls 0 of 18).
The variant KLSQSVLLESRNKNSVA | WASTREE | QQYHRLPLS showed 0.58, 0.67, 0.68, 0.39, 0.98, 1.19 (mean 0.75; controls 0 of 18).
The variant KPSQSVLYESRNKNSVA | WASTCES | QQEHRLPLS showed nd, nd, nd, nd, nd, nd (controls 0 of 18).
The variant KSSQTVLMESRNKNEVA | WASTRES | QQYHRLPLS showed nd, 2.23, nd, nd, nd, nd (controls 0 of 18).
The variant KSSQSVQYESRNKNSVA | WAQTRES | QQYHRLPLS showed nd, 1.19, nd, 1.93, 2.30, nd (mean 1.81; controls 0 of 18).
The variant KSSQSVLYESRVKNSVA | WASTRES | QQYHRLPHS showed nd, nd, 1.84, nd, nd, nd (controls 0 of 18).
The variant KSSQSVLYMERNFNSVA | WASTRES | QQYHRLPLS showed nd, nd, nd, nd, nd, nd (controls 0 of 18).
The variant KSSQSGLYESRNKNSVA | NASTRES | QQYHRLPLS showed 0.32, 0.33, 0.25, 0.24, 0.23, 0.34 (mean 0.28; controls 2 of 18).
The variant KSSISVLYESRNKNSVA | EASTRES | QQYHRPPLS showed 2.02, 0.54, 0.73, 1.32, 0.88, 1.15 (mean 1.11; controls 1 of 18).
The variant KSSQSVLYESRNKVSVA | WASTRES | QQYHRLPLS showed nd, nd, nd, nd, nd, nd (controls 0 of 18).
The variant NSSQSVRYESRNKNSVA | WASTREL | QTYARLPLS showed nd, nd, nd, nd, nd, nd (controls 1 of 18).
The variant KSSGSVLYESRNKNSVA | WASTRES | QQYHRLPLS showed 1.07, 0.62, 0.84, 0.94, 1.11, 1.27 (mean 0.98; controls 2 of 18).
The variant KMSQSVLDESRNKNSVA | EASTRES | QQYSRLPLS showed -0.14, -0.12, -0.12, -0.22, -0.37, -0.16 (mean -0.19; controls 2 of 18).
The variant KSSQSVLYESRNKQSVA | WASTRVS | QQYHREPLS showed nd, nd, nd, nd, nd, nd (controls 0 of 18).

A selection of 5 entries from above:

The variant KSVQSVLYESRNKNSVA | WASTRSS | QQYHRLPLS showed nd, nd, nd, nd, nd, nd (controls 0 of 18).
The variant KSSQSVLYESRNKVSVA | WASTRES | QQYHRLPLS showed nd, nd, nd, nd, nd, nd (controls 0 of 18).
The variant KVSQSVLPESRNKNSVA | WASTRET | QQYHRLPLS showed 1.71, 0.95, 1.46, 2.50, 2.79, 2.57 (mean 2.00; controls 2 of 18).
The variant KSSQSVLYENRNKNSVA | EASTRES | QQYHRLPLS showed 0.81, 1.51, 0.03, 0.31, 0.81, 1.25 (mean 0.79; controls 0 of 18).
The variant KISQSVLYESMNRNAVA | WASTRES | QQYHGLPLS showed 1.82, 1.71, 1.35, 2.01, 2.61, 1.92 (mean 1.90; controls 2 of 18).

Of ten entries with the parent sequence, four were seen in most replicates (averages 0.34 to 2.37), three in one and three in none, so single entries are noisy.
The range of this assay differs from that of the first round, and the authors advise against merging the two.
The authors' rule: three or more of the six replicates give a measured affinity, fewer mean a poor binder.
Background: pairings of all light chain designs with three empty control strains gave a value in 4% of cases (median 2.64, 5th percentile 1.59). Values in that range, when seen in few replicates, are hard to tell from nonspecific mating. The control count says in how many pairings with the empty strains this scFv gave a signal.